The target of the experiment is T1, AR protein in VCaP cells (Homo sapiens, UniProt P10275).
T1 construct: endogenous in cells; host or cells: VCaP cells
The experiment is described as follows: VCAP AR Degradation Assay. The experiment is classed as cell-based. The following applies: 24 h, AR ELISA. On the procedure: VCAP AR Degradation Assay. Test compounds were pre-dispensed into a Corning CellBind 96-well clear bottom plate (Cat #3300) using an acoustic dispenser to make a 10-point concentration series at 1:3 dilution for each compound. The final top concentration of each compound was 5 μM. DMSO at a final concentration of 0.1% was used as a control. VCaP cells cultured in DMEM with 8% fetal bovine serum (FBS) were seeded at 50K cells per well in a 200 μL volume into the compound plate and incubated at 37° C. in a CO2 incubator for 24 h. The medium was carefully removed from the cells and the plate was placed on ice. […] AR levels in compound-treated wells were normalized to that of DMSO control and expressed as percent of control (PoC) (y). A Four Parameter Logistic Model (Sigmoidal Dose-Response Model) was used to determine the compound's DC50, and EC50, using the following equation: y=(A+((B−A)/(1+((C/x)^D)))) • A=YMin (lowest AR level normalized to DMSO control in response to compound treatment, as determined by curve fit) • B=YMax (maximum AR level as determined by curve fit) • C=EC50 • D=Hill Slope • x=compound concentration • EC50=the concentration of compound when y=(YMax−YMin)/2 • DC50=the concentration of the compound when y=50% of DMSO control (50% AR degradation) • y=AR protein level normalized to DMSO control […]

Chains of the proteins cited; added tags and fusions are not shown. Lines headed by an entry give the natural chain unless they say otherwise; changes in a name come on top.
UniProt P10275: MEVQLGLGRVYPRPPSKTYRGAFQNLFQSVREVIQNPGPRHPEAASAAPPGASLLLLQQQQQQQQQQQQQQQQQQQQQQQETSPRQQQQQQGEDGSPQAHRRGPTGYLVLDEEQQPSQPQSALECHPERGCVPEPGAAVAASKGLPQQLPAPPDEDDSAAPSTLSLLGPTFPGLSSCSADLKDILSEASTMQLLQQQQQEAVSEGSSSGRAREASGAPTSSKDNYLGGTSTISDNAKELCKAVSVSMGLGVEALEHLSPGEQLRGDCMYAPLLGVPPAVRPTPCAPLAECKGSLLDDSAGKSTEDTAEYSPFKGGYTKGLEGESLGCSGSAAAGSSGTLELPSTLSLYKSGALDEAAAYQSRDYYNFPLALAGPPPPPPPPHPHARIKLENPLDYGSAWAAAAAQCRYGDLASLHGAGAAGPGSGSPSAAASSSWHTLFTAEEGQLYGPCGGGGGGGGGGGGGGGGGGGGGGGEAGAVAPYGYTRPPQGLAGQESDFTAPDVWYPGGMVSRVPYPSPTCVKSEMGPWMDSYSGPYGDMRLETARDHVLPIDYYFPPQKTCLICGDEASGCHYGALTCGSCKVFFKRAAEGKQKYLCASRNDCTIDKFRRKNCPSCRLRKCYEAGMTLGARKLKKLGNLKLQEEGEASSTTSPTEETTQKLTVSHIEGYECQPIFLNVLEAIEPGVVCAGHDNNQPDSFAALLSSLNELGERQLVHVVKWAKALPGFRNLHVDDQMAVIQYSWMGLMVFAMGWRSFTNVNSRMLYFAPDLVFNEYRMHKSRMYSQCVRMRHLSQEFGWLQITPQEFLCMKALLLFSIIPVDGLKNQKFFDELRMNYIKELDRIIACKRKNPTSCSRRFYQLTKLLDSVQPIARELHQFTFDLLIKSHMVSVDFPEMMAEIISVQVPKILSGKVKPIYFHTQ

A word on the DC50: it is the concentration giving 50% degradation. Read a low DC50 as degradation at low concentration. Turning to “N-(3-Chloro-5-((2,6-dioxopiperidin-3-yl)amino)phenyl)-2-((trans)-4-(3-((1r,4S)-4-(3-(4-cyano-3-(trifluoromethyl)phenyl)-5,5-dimethyl-4-oxo-2-thioxoimidazolidin-1-yl)cyclohexyl)propyl)-2,6-dimethylpiperazin-1-yl)acetamide [Cmpd 37]”, the DC50 (concentration at 50% of DMSO control (50% AR degradation)) is 10 to 100 nM. Further, the Y entry (lowest measured AR level normalized to DMSO control) is on record as “* (0<Y≤15%)”.

The values are drawn from patent US12103920B2, “Cereblon binding compounds, compositions thereof, and methods of treatment therewith” (Celgene Corporation, priority 2020, dated 2024).
